# Where two headings read alike, the source gives them in different places. Marks after values point to notes of the source that are not given here.
# Key:
# Hs578 Bst normal cells = experiment: Monolayer cell proliferation, crystal violet; assay type: cell-based
# Protocol: (§1) Cell proliferation studies were conducted in either serum containing or in serum-free medium as indicated. Cells were plated in 96-well tissue culture plates (Falcon #35-3075, Becton Dickinson, N.J.) at 2000 to 6000 cells per well, as appropriate for a cell line, and then grown overnight (15 to 18 hrs). For the cell proliferation studies done in serum containing medium, the cells were then treated with or without compounds and allowed to grow for 3 to 5 days. For cell proliferation studies done in serum-free growth conditions. After plating cells in serum, the cells were grown overnight (15 to 20 hrs), then the cells were switched to serum-free medium and grown for 24 to 48 hrs (serum-starvation). […] Cell proliferation was quantified by crystal violet dye method as described previously (Sugarman et al., 1987). Briefly, the culture medium was decanted, the cells washed once with PBS, followed by addition of 50 μl/well 0.5% (w/v) crystal violet dye (Sigma-Aldrich, St Loius, Mo.) in methanol and incubation for 20 min. The plates were washed with water 3-times and then air-dried overnight. The cell-bound dye was eluted with 100 μl/well Sorenson's buffer (25 mM sodium citrate in 50% ethanol) for 15 min on a plate shaker. The plate was then read on a plate reader at 540 nm wavelength for absorbance, which was directly proportional to the amount of cells in the well.
# A431 s.c. tumor = assay type: in vivo, nude mice
# Protocol: Mice were obtained from the commercial suppliers (Harlan, UK). The mice were 4-6 weeks old at the start of the study. Mice were maintained in sterile isolators within a barriered unit illuminated by fluorescent lights set to give a 12 hour light-dark cycle (on 07.00, off 19.00), as recommended in the United Kingdom Home Office Animals (Scientific Procedures) Act 1986. The room was air-conditioned by a system designed to maintain an air temperature range of 23±2° C. Mice were housed in groups of 2 or 5 during the procedure in plastic cages (Techniplast UK) with irradiated bedding and provided with both nesting materials and environmental enrichment. Sterile irradiated 2019 rodent diet (Harlan […] UK, product code […]) and autoclaved water was offered ad libitum. […] A431 cells were supplied by the PRECOS and maintained in vitro in RPMI 1640 culture medium (Gibco, Paisley, UK) containing 10% (v/v) heat inactivated foetal bovine serum (Sigma, Poole, UK) at 37° C. in 5% CO2 and humidified conditions. […] Tumor dimensions were recorded (calliper measurement of length and width and tumor cross-sectional area and volume calculated) three times weekly and body weight measured weekly. Each mouse remained in the study until terminated, or until necessitate removal of that mouse from the study. Animals were terminated if the tumor size becomes excessive or any adverse effects are noted. At termination the mice were anaesthetized (Hypnorm/Hynovel) and 1 ml blood removed by cardiac puncture, processed for plasma, frozen for both the pilot and therapeutic study. The mice were then terminated by an approved S1 method. For the therapeutic study, the tumors were excised, weighed, measured and fixed in formalin. Body weight data, tumor growth and final tumor weight were recorded and reported in spreadsheet and graphical format. Statistical analysis was performed if appropriate using Minitab. Pilot toxicity study was terminated after 12 days of dosing in order to collect plasma samples 3 hours after dosing. An extra group for the therapeutic study was added by PRECOS as below. Group 9: 30 mg/kg human IgG i.p. 3 times weekly. Iressa was prepared by PRECOS in 10% DMSO & 5% Cremaphor in PBS. Tumors were initiated with 2×10^6 cells per mouse for the therapeutic study. RB200h and IgG was dosed intravenously for the therapeutic study as requested by the sponsors. Due to adverse effects noted following the first dose in groups 2, 3 & 8 dosing was reverted back to i.p. for the remainder of the study.
# A549 cells = experiment: Soft agar colony growth assay; assay type: cell-based, human
# Protocol: (§2) The soft agar colony growth assays were performed based on the method described by Hudziak et al (1987), except that the assay was done in 24-well plates with 1.5 ml of 0.5% agarose in culture medium with 10% fetal bovine serum as the base layer and the top layer containing the cells was 0.5 ml of 0.25% agarose in 10% fetal bovine serum. Compounds were added to the top layer. The colony growth was allowed to occur at 37° C. in a humidified incubator with 5% CO2 and 95% air. At approximately every 3-days, 50 μl/well sterile water was added to prevent drying. The cell colonies were stained with 1.0 ml/well of 0.001% crystal violet in water overnight at 4° C. The cell colonies were counted using a microscope.
# ZR-75-1 cells = experiment: Soft agar colony growth assay; assay type: cell-based, human
# Protocol: as §2
# MCF-7 cells = experiment: Growth factor stimulated cell proliferation in serum-free medium; assay type: cell-based
# Protocol: as §1, with “conducted” for “conducted in either serum containing or”, “For cell proliferation studies done in serum-free growth conditions.” left out
# [1] = 10 mg/kg RB200h three times weekly
# [2] = Group 2, 10 mg/kg RB200h, group mean
# [3] = Group 3, 30 mg/kg RB200h, group mean
substance,measurement,setting,value
RB200h: heterodimer: full length HER 1 ECD linked to full length HER 3 ECD via Fc domain (HER1-621/Fc and HER3-621/Fc with His tag),inhibition of cell proliferation,Hs578 Bst normal cells,no significant inhibition of cell proliferation
same,A431 tumor growth,A431 s.c. tumor; [1],did not significantly attenuate
same,trend to decreasing the tumor size,A431 s.c. tumor; [1],15-20%
same,reduction of final tumor weight,A431 s.c. tumor; 30 mg/kg RB200h three times weekly (Group 3),50%
same,tumor growth (rate) in comparison to the vehicle group,"A431 s.c. tumor; 30 mg/kg three times weekly, dosing from day 10, study terminated at day 26",significantly reduced
same,Tumor volume (mm^3) Day 7,A431 s.c. tumor; [2],39.2 mm^3
same,Tumor volume (mm^3) Day 10,A431 s.c. tumor; [2],72.2 mm^3
same,Tumor volume (mm^3) Day 12,A431 s.c. tumor; [2],102.5 mm^3
same,Tumor volume (mm^3) Day 14,A431 s.c. tumor; [2],149.3 mm^3
same,Tumor volume (mm^3) Day 17,A431 s.c. tumor; [2],221.5 mm^3
same,Tumor volume (mm^3) Day 19,A431 s.c. tumor; [2],278.5 mm^3
same,Tumor volume (mm^3) Day 21,A431 s.c. tumor; [2],365.7 mm^3
same,Tumor volume (mm^3) Day 24,A431 s.c. tumor; [2],564.3 mm^3
same,Tumor volume (mm^3) Day 25,A431 s.c. tumor; [2],596.1 mm^3
same,Tumor volume (mm^3) Day 26,A431 s.c. tumor; [2],676.7 mm^3
same,Tumor weight,"A431 s.c. tumor; Group 2, 10 mg/kg RB200h, final tumor weight, group mean",0.451 g
same,Tumor volume (mm^3) Day 7,A431 s.c. tumor; [3],40.0 mm^3
same,Tumor volume (mm^3) Day 10,A431 s.c. tumor; [3],53.7 mm^3
same,Tumor volume (mm^3) Day 12,A431 s.c. tumor; [3],72.5 mm^3
same,Tumor volume (mm^3) Day 14,A431 s.c. tumor; [3],107.7 mm^3
same,Tumor volume (mm^3) Day 17,A431 s.c. tumor; [3],154.3 mm^3
same,Tumor volume (mm^3) Day 19,A431 s.c. tumor; [3],225.0 mm^3
same,Tumor volume (mm^3) Day 21,A431 s.c. tumor; [3],298.1 mm^3
same,Tumor volume (mm^3) Day 24,A431 s.c. tumor; [3],370.3* mm^3
same,Tumor volume (mm^3) Day 25,A431 s.c. tumor; [3],440.4* mm^3
same,Tumor volume (mm^3) Day 26,A431 s.c. tumor; [3],462.5* mm^3
same,Tumor weight (g),"A431 s.c. tumor; Group 3, 30 mg/kg RB200h, final tumor weight, group mean",0.270* g
same,effect on EGF or NRG1β1 treated colony growth,A549 cells,did not produce statistically significant inhibition
same,inhibition of colony growth,A549 cells; in the absence of growth factors,approximately 65%
same,effect on EGF or NRG1β1 stimulated soft agar colony growth,ZR-75-1 cells,inhibited
same,effect on NRG1β1 stimulated cell proliferation,MCF-7 cells,completely blocked

# Reference: patent US20100055093A1, “PAN-CELL SURFACE RECEPTOR-SPECIFIC THERAPEUTICS” (RECEPTOR BIOLOGIX INC., priority 2006, published 2010)
